This note sets out measurements from patent US8765729B2, “Cancer therapy” (Aeolus Sciences, Inc., priority 2001, dated 2014).

In the data set the test system is mice. The settings on record: two highest doses (153 and 268 mg/kg ip), 48 hours.

On to `O=C(O)c1ccc(-c2c3nc(c(-c4ccc(C(=O)O)cc4)c4ccc([n-]4)c(-c4ccc(C(=O)O)cc4)c4nc(c(-c5ccc(C(=O)O)cc5)c5ccc2[n-]5)C=C4)C=C3)cc1.[Mn+3]` [MnTBAP, manganese (III) tetrakis (4-benzoic acid) porphyrin], for which the lethality result is listed as “lethal”.
